Literature values in US20220354840A1, “NICOTINE POUCH” (Enorama Pharma AB, priority 2019, published 2022).

Details: at 25° C.; cited from earlier work

## CC(C)[C@@H]1CC[C@@H](C)C[C@H]1O [L-Menthol]
  Solubility in water: 0.49 mg/ml at 25 °C
